Experimental data as given in patent US9108900B2, “Method of treating diseases that respond to therapy by dopamine or dopamine agonists” (UCB Pharma GmbH, priority 2003, dated 2015).

The chains behind the UniProt entries cited, without tags or fusion partners. Where a name states a change or a piece, a line headed by the entry shows the natural chain unless it says otherwise. Residues count along the entry.
UniProt P35462, whole entry: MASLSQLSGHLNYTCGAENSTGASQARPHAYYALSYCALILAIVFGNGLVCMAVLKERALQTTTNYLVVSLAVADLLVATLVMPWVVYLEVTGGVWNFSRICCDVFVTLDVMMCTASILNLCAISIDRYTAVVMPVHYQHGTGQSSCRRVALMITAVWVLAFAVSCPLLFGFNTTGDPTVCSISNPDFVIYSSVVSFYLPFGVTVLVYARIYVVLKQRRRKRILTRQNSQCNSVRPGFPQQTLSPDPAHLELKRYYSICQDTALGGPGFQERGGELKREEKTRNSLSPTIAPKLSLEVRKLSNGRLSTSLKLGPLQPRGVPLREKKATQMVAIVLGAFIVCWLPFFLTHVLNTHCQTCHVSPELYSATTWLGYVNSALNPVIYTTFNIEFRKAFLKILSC
UniProt P14416, whole entry: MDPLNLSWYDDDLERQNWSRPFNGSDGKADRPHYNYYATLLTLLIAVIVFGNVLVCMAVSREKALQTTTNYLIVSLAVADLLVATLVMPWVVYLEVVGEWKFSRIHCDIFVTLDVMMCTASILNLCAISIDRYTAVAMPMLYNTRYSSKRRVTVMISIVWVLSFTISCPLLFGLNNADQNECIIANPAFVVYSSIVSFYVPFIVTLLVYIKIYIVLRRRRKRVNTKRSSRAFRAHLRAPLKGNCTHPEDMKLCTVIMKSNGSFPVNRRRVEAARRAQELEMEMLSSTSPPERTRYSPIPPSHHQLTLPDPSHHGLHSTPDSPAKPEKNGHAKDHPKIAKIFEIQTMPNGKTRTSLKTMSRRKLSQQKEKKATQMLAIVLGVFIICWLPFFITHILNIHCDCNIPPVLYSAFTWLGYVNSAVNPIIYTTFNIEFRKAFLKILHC
UniProt P14416, 1-414 isoform P14416-2: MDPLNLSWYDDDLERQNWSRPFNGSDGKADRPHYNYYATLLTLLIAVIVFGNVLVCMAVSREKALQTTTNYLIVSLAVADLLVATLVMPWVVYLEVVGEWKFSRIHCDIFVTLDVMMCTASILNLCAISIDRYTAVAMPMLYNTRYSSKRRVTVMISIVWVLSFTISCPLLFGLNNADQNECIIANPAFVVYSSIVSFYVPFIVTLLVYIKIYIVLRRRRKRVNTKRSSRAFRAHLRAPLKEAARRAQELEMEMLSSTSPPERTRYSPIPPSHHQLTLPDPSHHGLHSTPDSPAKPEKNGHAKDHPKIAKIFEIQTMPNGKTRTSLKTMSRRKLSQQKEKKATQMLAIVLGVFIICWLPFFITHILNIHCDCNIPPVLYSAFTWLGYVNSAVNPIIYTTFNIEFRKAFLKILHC

Columns and labels:
[1] = target: T1, dopamine D3 (h) (Homo sapiens, UniProt P35462); details: receptor binding tests
[2] = target: D2L (Homo sapiens, UniProt P14416); experiment: cell-based
[3] = target: D3 (Homo sapiens, UniProt P35462); experiment: cell-based
[4] = target: dopamine D2S (h) (Homo sapiens, UniProt P14416); experiment: biochemical
[5] = target: T1, dopamine D3 (h); experiment: biochemical

With `CCCN[C@H]1CCc2c(O)cccc2C1` the “selectivity D3/D1” value [1] was over 1000, the “selectivity D3/D2” value [1] was “approx. 40” and the “selectivity D3/D5” value [1] was over 1000. For the same compound, the EC50 [2] was 2.7 nM, the EC50 [3] was 0.67 nM and the Ki [4] was 290 nM. The Ki [5] was 7.6 nM.
